Read-outs that look alike come from different tables or passages of the source.
Columns and labels:
[1] = Description: Human corneal-scleral rims, which were discarded following harvesting of the corneal button (Regional Cornea Bank, Bologna, Italy), were frozen in liquid nitrogen and used within 15 days of explantation.
(§1) Permeation experiments were performed in Franz-type diffusion cells with an area of 0.2 cm^2 for human sclera and 0.6 cm^2 for porcine sclera.
(§2) To reduce edge damage, a thin layer of silicone lubricant was applied to the glass surface, and the minimum force necessary to keep the cell sealed was applied.
(§3) The receptor compartment contained 4 ml of 25 mM HEPES buffer (pH 7.4) added with 0.9% NaCl, kept at 37 °C, and magnetically stirred. […] At predetermined time intervals, the receptor solution was sampled for the determination of drug permeated.
(§4) The transscleral flux, i.e., the amount of drug that crosses 1 cm^2 of sclera in 1 h (J, µg/cm^2h) was calculated as the slope of the regression line at the steady-state while the lag time was the intercept of the regression line on the x-axis. The permeability coefficient (P, cm/s) was calculated as J/Cv where Cv represents the concentration of the donor solution.
(§5) Experiments performed with human sclera were replicated three to four times while those performed on porcine sclera were replicated five to seven times. All the experiments were performed using previously frozen tissues, and acetaminophen permeability was tested also through fresh pig sclera.
(§6) Acetaminophen and insulin were analyzed by HPLC with a Perkin-Elmer instrument (Norwalk, CT), which is made of an isocratic pump LC250 an UV detector LC290, and the Perkin Elmer Turbochrom Workstation software.
(§7) Acetaminophen was analyzed using a C18 Novapak® column (150×3.9 mm; Waters, Milford, MA) and a mobile phase composed of 92% (v/v) 10 mM sodium acetate pH 4 and 8% (v/v) acetonitrile, which was pumped at 1 ml/min. The detector was set at 254 nm.
(§8) Insulin was analyzed using a C18 Symmetry300® column (250×4.6 mm; Waters) at 40 °C and a mobile phase composed of 73% (v/v) aqueous phase and 27% (v/v) acetonitrile, which was pumped at 1 ml/min. The aqueous phase contained anhydrous sodium sulfate 28.4 g/l and phosphoric acid 2.7 ml/l and was adjusted at pH 2.3 with ethanolamine. The detector was set at 214 nm.
(§9) The excitation and emission λ were 490 and 520 nm, respectively.

[2] = porcine sclera
Description: Porcine globes were obtained from pigs (Large White, Landrance, Duroc; 10–11 months) that ranged in weight 145–190 kg and came from a local slaughterhouse. Porcine eyes were either used within 24 h of explantation or frozen at −80 °C until use. After thawing, the adherent muscle tissue was removed from the eye bulb, and the anterior segment of the eye was circumferentially cut behind the limbus. The eye was then cut into two halves, the vitreous was removed, and the anterior sclera was used for permeation experiments after the removal of the underling tissues using a cotton swab. The frozen tissues were used within three months of explantation.
as §1, §2, §3, §4, §5, §6, §7, §8, §9

[3] = ref 11 (Cruysberg et al.); cited from earlier work

fluorescein isothiocyanate (FITC)-dextran [FD-150]
Permeability coefficient relative to acetaminophen ([1]; human sclera): 100 times lower
P (permeability coefficient) ([1]; human sclera, previously frozen, Franz-type cell 0.2 cm^2, donor pH 7.4 HEPES, 37 °C, P = J/Cv, mean±SEM, n = 3-4): 0.48±0.067 cm/s x10^−6
Lag-time ([1]; human sclera, previously frozen, intercept of the regression line on the x-axis, donor pH 7.4, 37 °C, mean±SEM, n = 3-4, SEM): 28 ± 7 min
DK (diffusion coefficient x partition coefficient) ([1]; human sclera, from P = DK/H with H = tissue thickness (0.59 mm), mean±SEM, SEM): 0.028±0.004 cm^2/s x10^−6
Flux through human sclera relative to pig sclera ([1]; ratio human / pig sclera flux): 3 times
Permeability coefficient relative to acetaminophen [2]: 100 times
Flux ([2]; previously frozen, Franz-type cell 0.6 cm^2, donor 4.9 mg/ml acetaminophen, 1 mg/ml FD-150 or 1 mg/ml insulin in 25 mM HEPES pH 7.4, receptor HEPES pH 7.4 + 0.9% NaCl (0.3% BSA for insulin), 37 °C, slope at steady state, HPLC-UV (FD-150 fluorescence), mean±SEM, n = 5-7, SEM): 0.57±0.03 µg/cm^2h
Lag-time ([2]; previously frozen, intercept of the regression line on the x-axis, donor pH 7.4, 37 °C, mean±SEM, n = 5-7, SEM): 57 ± 7 min
DK (diffusion coefficient x partition coefficient) ([2]; from P = DK/H with H = tissue thickness (1.25 mm), mean±SEM, SEM): 0.019±0.009 cm^2/s x10^−6
Permeability coefficient through human sclera (literature) [3]: approximately 1.0x10^−7 cm/s

From paper PMC2633461, “Porcine sclera as a model of human sclera for in vitro transport experiments: histology, SEM, and comparative permeability” (Molecular Vision, 2009)
